According to patent US20100227401A1, “MEDIA AND PROCESSES FOR THE EX VIVO PRODUCTION OF MEGAKARYOCYTES FROM HUMAN CD34+ CELLS” (FOOD INDUSTRY RESEARCH AND DEVELOPMENT INSTITUTE, priority 2003, published 2010):

Test system: serum-free expanded CD34^+ cells
Assay: Ex vivo Mk induction from serum-free expanded CD34+ cells, 1-week induction, TNC count and Mk count (CD41a+CD61+)
Format: cell-based, human
Settings: preliminary screening of serum substitutes (data not shown)
Experimental: Each experiment was repeated at least four times. […] (1978), Statistics for Experimenters: An Introduction to Design, Data Analysis, and Model Building, Wiley, New York). In addition, the statistical significance was determined by an F-test, and the significance of the regression coefficient was analyzed by a t-test. Briefly, factorial design data were regressed by Design Expert statistical software (Stat-Ease Inc., Minneapolis, Minn.) to obtain a polynomial function represented by a simplified equation (1) as shown below: […] After cultivation for 1 week, the cells were collected and subjected to the TNC count as described above and a megakaryocyte count (Mk count) so as to evaluate the ex vivo megakaryocytopoietic effects of the tested serum substitutes and cytokines. The Mk count was conducted by labeling the collected cells with CD41a-FITC and CD61-PE and analyzed according to the operating procedure described in the following section, entitled “4. Analysis of cell surface antigen.” […] The incubation was terminated by washing three times with 1 mL FACS buffer. […] After washing with FACS buffer, the labeled cells were resuspended in 1 mL FACS buffer and analyzed on a FACSCalibur analyzer (Becton-Dickinson, NJ, USA). The data were analyzed by CellQuest software. […] After 1-week induction, the Mk number of each group was calculated. […]

Substance: human serum albumin [HSA]
- effect on ex vivo megakaryocytopoiesis: significantly positive effects
